Experiments:
Type in all cases: cell-based
NK1R [1] = biological target: T1, NK1R (Rattus norvegicus, UniProt P14600); test: BRET between NK1R-RLuc8 and βarr1/2-YFP in HEK293 cells; set-up: Full length and truncated 6312 rat HA-NK1R have been described; expressed in transfected cells; host or cells: HEK293 (transient); settings: agonist alone
Source text: (§1) Bioluminescence Resonance Energy Transfer (BRET) was employed to quantitatively assess the proximity of the NK1R to key regulators of GPCR trafficking (βarrs), and resident proteins of plasma (KRas) and early endosomal (Rab5a) membranes in HEK293 cells (FIG. 1A). […] Endocytosis was dynamin- and clathrin-dependent because the dynamin inhibitor Dyngo 4a (Dy4), the clathrin inhibitor PitStop 2 (PS2) and expression of dominant negative dynamin K44E all blocked the decrease in NK1R-RLuc8/KRas-Venus BRET and the increase in NK1R-RLuc8/Rab5a-Venus BRET (FIG. 1E, F).
(§2) HEK293 cells were transfected with the following cDNAs: 1 μg NK1R-RLuc8 or 1 μg CLR-RLuc8+1 μg Myc-RAMP1+4 μg KRas-Venus, 4 μg Rab5a-Venus, 4 μg βarr1-YFP, or 4 μg βarr2-YFP; or 1 μg NK1R+0.5 μg Gαq-RLuc8+1 μg Gβ1+4 μg Gγ2-Venus; or 1 μg NK1R+0.5 μg Gαq-RLuc8+1 μg Gβ1+1 μg Gγ2+4 μg Rab5a-Venus. After 48 h, cells were equilibrated in Hank's balanced salt solution (HBSS) at 37° C., and incubated with the RLuc substrate coelenterazine h (5 μM, 15 min). BRET ratios were determined using a microplate reader LUMIstar Omega (BMG LabTech) before and after challenge with SP (0.1-10 nM) or vehicle (dH2O).

Protein sequences, listed by entry. Tags and fused reporters are not part of them.
UniProt P14600, whole entry: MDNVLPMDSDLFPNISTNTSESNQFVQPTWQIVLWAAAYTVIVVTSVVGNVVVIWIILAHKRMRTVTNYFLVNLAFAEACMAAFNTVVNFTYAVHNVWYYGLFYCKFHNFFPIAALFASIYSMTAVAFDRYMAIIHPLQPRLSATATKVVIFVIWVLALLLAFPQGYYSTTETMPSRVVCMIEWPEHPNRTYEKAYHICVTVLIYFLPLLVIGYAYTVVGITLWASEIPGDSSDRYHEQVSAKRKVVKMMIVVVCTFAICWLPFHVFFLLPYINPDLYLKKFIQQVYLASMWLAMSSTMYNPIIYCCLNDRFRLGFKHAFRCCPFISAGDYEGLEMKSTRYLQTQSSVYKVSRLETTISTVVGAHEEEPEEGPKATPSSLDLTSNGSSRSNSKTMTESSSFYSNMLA

NK1R [2] = biological target: T1, NK1R; test: NK1R endocytosis in rat spinal cord slices; settings: SP 1 μM, 5 min
NK1R [3] = biological target: T1, NK1R; test: FRET biosensors of compartmentalized signaling (ERK, PKC, cAMP) in NK1R-expressing HEK293 cells; set-up: Full length and truncated 6312 rat HA-NK1R have been described; expressed in transfected cells; host or cells: HEK293 (transient); settings: agonist alone
Source text: To study the link between NK1R trafficking and signaling, the NK1R and Förster Resonance Energy Transfer (FRET) biosensors targeted to detect activated ERK in the cytosol (CytoEKAR) or nucleus (NucEKAR, FIG. 2A), activated PKC at the plasma membrane (pmCKAR) or in the cytosol (CytoCKAR, FIG. 2C), and cAMP at the plasma membrane (pmEpac2) or in the cytosol (CytoEpac2, FIG. 2E) were expressed in HEK293 cells. […] Dynamin WT magnified SP activation of nuclear ERK, whereas dynamin K44E abolished activation of nuclear ERK (FIG. 2G). […] Thus, clathrin- and dynamin-dependent NK1R endocytosis is required for activation of nuclear ERK, which also depends on βarrs and for activation of cytosolic PKC and cAMP.
HEK293 cells were transfected with 55 ng/well rat NK1R with N-terminal HA. 11 epitope tag (HA-NK1R) or CLR plus RAMP1 and 40 ng/well FRET biosensors. FRET was assessed 48 h after transfection, following serum restriction (0.5% FBS overnight). For experiments using clathrin or dynamin siRNA, cells were transfected with 55 ng/well rat HA-NK1R, 40 ng/well FRET biosensor and 25 nM/well scrambled, clathrin or dynamin ON-TARGETplus SMARTpool siRNA (GE Dharmacon). FRET was assessed 72 h after transfection, following serum restriction (0.5% FBS overnight). Cells were equilibrated in HBSS at 37° C. and FRET was analyzed using a GE Healthcare INCell 2000 Analyzer. For GFP/RFP emission ratio analysis, cells were sequentially excited using a FITC filter (490/20) with emission measured using dsRed (605/52) and FITC (525/36) filters, and a polychroic optimized for the FITC/dsRed filter pair (Quad4). For CFP/YFP emission ratio analysis, cells were sequentially excited using a CFP filter (430/24) with emission measured using YFP (535/30) and CFP (470/24) filters, and a polychroic optimized for the CFP/YFP filter pair (Quad3). Cells were imaged every 1 min, allowing image capture of 14 wells per minute. Baseline emission ratio images were captured for 4 min. Cells were challenged with an EC50 concentration of SP (1 nM), GGRP (1 nM) or vehicle, and images were captured for 20 min. Cells were then stimulated with the positive control (200 nM phorbol 12,13-dibutyrate for ERK; 200 nM phorbol 12,13-dibutyrate with phosphatase inhibitor cocktail for PKC; 10 μM forskolin, 100 μM 3-isobutyl-1-methylxanthine, 100 nM PGE1 for cAMP) for 10 min to generate a maximal increase, and positive emission ratio images were captured for 4 min. Data were analyzed as described and expressed as emission ratios relative to baseline for each cell (F/F0). Cells with >10% change in F/F0 after stimulation with positive controls were selected for analysis.

NK1R [4] = biological target: T1, NK1R; test: BRET of NK1R trafficking (KRas-Venus, Rab5a-Venus) in HEK293 cells; set-up: Full length and truncated 6312 rat HA-NK1R have been described; expressed in transfected cells; host or cells: HEK293 (transient); settings: agonist alone, SP 1, 10 nM
Source text: as §1, §2

With “SP: substance P, NK1R agonist used as stimulus” the “recruitment of βarrs (BRET NK1R-RLuc8 / βarr1-YFP, βarr2-YFP)” value (NK1R [1]) was “stimulated BRET between NK1R-RLuc8 and βarr1-YFP and βarr2-YFP”, the “NK1R endocytosis in lamina I neurons of spinal cord slices” value (NK1R [2]) was “stimulated NK1R endocytosis” and the “cytosolic PKC activity (FRET CytoCKAR)” value (NK1R [3]; SP 1 nM) was “caused a rapid and sustained increase in cytosolic PKC activity”. For the same substance, the “cytosolic cAMP (FRET CytoEpac2)” value (NK1R [3]; SP 1 nM) was “caused a sustained increase in cytosolic cAMP”, the “plasma membrane PKC activity (FRET pmCKAR)” value (NK1R [3]; SP 1 nM) was “did not affect plasma membrane PKC activity” and the “plasma membrane cAMP (FRET pmEpac2)” value (NK1R [3]; SP 1 nM) was “transiently increased plasma membrane cAMP”. The “cytosolic ERK activation (FRET CytoEKAR)” value (NK1R [3]; imaged over 20 min) was “rapidly and transiently activated cytosolic ERK”, the “nuclear ERK activation (FRET NucEKAR)” value (NK1R [3]; imaged over 20 min) was “caused a delayed and sustained activation of nuclear ERK” and the “NK1R endocytosis (NK1R-RLuc8/KRas-Venus and NK1R-RLuc8/Rab5a-Venus BRET)” value (NK1R [4]) was “decreased NK1R-RLuc8/KRas-Venus BRET and concomitantly increased NK1R-RLuc8/Rab5a-Venus BRET”.

Reference: patent publication US11324832B2, “Tripartite modulators of endosomal G protein-coupled receptors” (Endosome Therapeutics, Inc., priority 2015, dated 2022)
